Data as given in PMC6213480, “A Novel Cold-Adapted Leucine Dehydrogenase from Antarctic Sea-Ice Bacterium Pseudoalteromonas sp. ANT178” (Marine Drugs, 2018).

Test system: O=C(O)[C@@H]1CCCN1
Assay: purified protein
Settings: oxidative deamination with NAD+, standard assay 0.1 M glycine-NaOH pH 10.4, 1 mM NAD+, 30 °C

## rPsLeuDH (Pseudoalteromonas sp.)
  Km: 640 µM
  Vmax: 10.5 µmol/min/mg
  kcat: 20.8 s⁻¹
  kcat/Km: 32500 M⁻¹ s⁻¹
